Test results from US6706683B1, “Method for controlling the release of granules” (Asahi Kasei Pharma Corporation, priority 1998, dated 2004).

System: neutrophils
Assay: Screening of samples in calgranulin-stimulated elastase secretion from permeabilized neutrophils (Example 3)
Type: cell-based, human
Details: sample 30 μM, control without sample = 100%, calcium chloride 1 μM plus calgranulin (type and concentration not given)

`O=C(O)c1cc(N=Nc2ccc(S(=O)(=O)Nc3ccccn3)cc2)ccc1O` [Compound 4, 2-hydroxy-5-((-4-((-2-pyridinylamino)sulfonyl)phenyl)azo)benzoic acid, reference compound] was tested, and the “Amount of secretion (%)” value was 75%.
